{"source": "patent US20230263825A1", "about": "“ANTI-CANCER ACTIVITY OF PERBORATE SALTS” (priority 2020, published 2023)", "origin": "cited, not measured here", "key": {"[1]": {"settings": "mammalian systems; cited from earlier work"}, "[2]": {"settings": "up to 18 mg of boron daily in adults; cited from earlier work"}}, "data": [{"smiles": "[B]", "note": "[boron]", "values": [{"measurement": "time to excretion through the urinary tract", "setting": "[1]", "value": "≤ 96", "unit": "h"}, {"measurement": "side effects", "setting": "[2]", "value": "does not cause any side effects"}]}]}
